The text below walks through data of ChEMBL document CHEMBL1921679, “Synthesis and biological evaluation of novel pyrimidine derivatives as sub-micromolar affinity ligands of GalR2” (Bioorg Med Chem Lett, 2011).

As usually defined, the inhibition is the change of the read-out against control, counted positive when it falls. Read a high inhibition as strong suppression.

Assay [1] concerns the target T1, Galanin receptor type 2 (Homo sapiens) (UniProt O43603).
T1 sequence (whole entry): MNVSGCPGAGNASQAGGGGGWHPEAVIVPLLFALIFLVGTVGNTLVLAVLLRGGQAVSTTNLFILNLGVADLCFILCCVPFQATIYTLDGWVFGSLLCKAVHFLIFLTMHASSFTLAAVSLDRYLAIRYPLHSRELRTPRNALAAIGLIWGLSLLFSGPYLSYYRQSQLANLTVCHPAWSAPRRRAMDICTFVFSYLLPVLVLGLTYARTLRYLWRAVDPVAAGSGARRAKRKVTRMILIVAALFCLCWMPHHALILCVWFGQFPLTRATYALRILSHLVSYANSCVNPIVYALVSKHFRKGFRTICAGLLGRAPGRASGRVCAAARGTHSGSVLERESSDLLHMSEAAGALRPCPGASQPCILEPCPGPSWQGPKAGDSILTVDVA
As to the kind of experiment: Displacement of [125I]galanin from GalR2 at 10 uM by gamma counting. The essentials: (§1)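 Single-point screen at 1 and 10 μM, in duplicate, with two screens per receptor. Final 125I porcine galanin was 0.1 nM (GalR1) or 0.15 nM (GalR2). Incubation 1 h, room temperature. Filtration through PEI-treated glass fibre, cold PBS/Triton washes, γ-counting.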
In general terms: In a radioligand displacement assay an active substance lowers the binding of a labelled ligand.

The target of assay [2] is T1, Galanin receptor type 2 (Homo sapiens). The assay can be described thus: Displacement of [125I]galanin from GalR2 at 1 uM by gamma counting. In outline: as §1

With `COc1ccc(Nc2nc(Nc3ccc(OC)c(F)c3)cc(N3CCCCC3C)n2)cc1` (centres undefined), the inhibition in assay [1] and in assay [2] was more than 50% throughout.
With `COc1ccc(Nc2nc(Nc3ccc(OC)c(F)c3)cc(N3CCN(c4ncccn4)CC3)n2)cc1`, the inhibition in assay [1] and in assay [2] was more than 50% in each case.
For `COc1ccc(Nc2nc(Nc3ccc(OC)c(F)c3)cc(N3CCC(C)CC3)n2)cc1`, the inhibition in assay [1] and in assay [2] was more than 50% each time.
`COc1ccc(Nc2nc(Nc3ccc(OC(F)F)cc3)cc(N3CCCCC3)n2)cc1`: the inhibition in assay [1] and in assay [2] was more than 50% each time.
For `FC(F)(F)Oc1ccc(Nc2cc(Nc3ccccc3)nc(N3CCCCC3)n2)cc1`, the inhibition in assay [1] and in assay [2] was more than 50% each time.
Take `COc1ccc(Nc2nc(Nc3ccc(OC)c(F)c3)cc(N3CCCC3)n2)cc1`: the inhibition in assay [1] and in assay [2] was more than 50% throughout.
On to `COc1ccc(Nc2nc(Nc3ccc(OC)c(F)c3)cc(N3CCC(N4CCCCC4)CC3)n2)cc1`, for which the inhibition in assay [1] and in assay [2] was more than 50% in each case.
